Source: PubChem BioAssay AID2472 (National Center for Advancing Translational Sciences (NCATS), 2010)
“And” between values parts separate entries of the source, which are not always exact repeats. Identical values can stand only once. This is a selection; strong and weak results do not stand in their true shares. The source made the active and inactive calls. Rule as the data show it: active = activity change below about -30%; inactive = the rest, inconclusive results apart.

test: qHTS Assay for Inhibitors of Fructose-1,6-bisphosphate Aldolase from Giardia Lamblia: Coupling assay counterscreen; settings: coupling enzyme system counterscreen, AmpLite Red fluorescence; at 58.2 µM (top of the series)
From the text: MLPCN Grant: MH085699-01 Assay Provider: Osnat Herzberg, University of Maryland NCGC Assay Overview: The objective of this project is to obtain compounds that inhibit Giardia lamblia growth. G. lamblia is a human pathogen which afflicts impoverished nations; it is the most common cause of outbreaks of diarrhea in the United States. During the course of our study of potential drug targets in Giardia, we have identified the Class II (Zn2+ functions in electrophilic catalysis) fructose-1,6-bisphosphate aldolase (FBPA) as an excellent candidate for drug targeting. FBPA is a key glycolytic pathway enzyme, essential for G. lamblia survival. The human FBPA belongs to the Class I aldolases, which have a different substrate binding site structure and a radically different catalytic mechanism (employing a lysine-Schiff base intermediate). Therefore, affinity-based or mechanism-based inhibitors of the Giardia FBPA are expected not to interfere with the catalytic function of the human FBPA. A glyceraldehyde-3-phosphate dehydrogenase/triose phosphate isomerase/NAD/arsenate coupled assay was adapted to the 1536-well HTP format for use in the primary screen. This was done by coupling it to a diaphorase/resazurin/resorufin reaction that can be monitored by fluorescence (excitation, 544 nm; emission, 590 nm). Compounds identified in this screen will be further evaluated by coupling the […]/triose phosphate isomerase/NADH assay to a phenazine methosulfate/tetranitroblue tetrazolium color reaction. False positives due to the dehydrogenases and diaphorase inhibition will be eliminated, and selectivity assay will triage inhibitors of mammalian triose phosphate isomerase and the Class I FBPA. G. lamblia FBPA inhibitors identified by the in vitro analyses will be examined for growth inhibition of Giardia trophozoites, and for cytotoxicity in human cells. This assay specifically addresses whether activity observed in the primary screen (AID 2451) is related to inhibition of the coupling assay used, as opposed to inhibition of aldolase. Actives in this assay are considered inconclusive for activity against aldolase.
NCGC Assay Protocol: Step,Parameter,Value,Description 1,Coupling enzyme reagent,2 uL,glyceraldehyde-3-phosphate 2,Compound,23 nL,3.68 nM-57.5 uM final concentration 3,Time,10 min,RT Incubation 4,Substrate/detection Reagent,2 uL,Substrate + enzyme coupling system + AmpLite Red kit 5,Time,20 min,RT Incubation 6,Detector,525 nm/598 nm (Fluorescence),ViewLux Fluorescence Read (Read 1) Notes: 1,Medium-binding black solid-bottom Kalypsys plates. FRD or Kalypsys dispenser. 2,Compound Library (10 mM ,1:5 dilution). Pin-transferred for a [final] range of 3.68 nM-57.5 uM. 3,RT incubation 4,FRD or Kalypsys dispenser, 2 uL of reaction mixture. Bottle kept at 4C and covered in foil to protect from light. 5,RT incubation 6,ViewLux Protocol 1194; Excitation filter wheel A (525/20 Pol; BODIPY TMR FP), Emission filter wheel B (598/25 S; BODIPY TMR FP S). Keywords: Fructose-bisphosphate aldolase, FBPA , Giardia lamblia , Giardia, HTS, Inhibitors
% is scaled to controls: 0 for no effect and ±100 for the full control effect.

SMILES | activity change, negative = inhibition
CC(=O)C1=CCCC2CCC1N2 (configuration not stated) | inactive: 1.33%
CN(C)C(=O)OCCc1n(C)cc[n+]1C | inactive: 0.396%
CC(C)=N/N=C(\N)N[N+](=O)[O-] | inactive: -2.52%
CCN(/C(=N/P(=O)(N1CCOCC1)N1CCOCC1)N1CCOCC1)c1ccc(OC)cc1 | inactive: 1.14%
C[N+]1=C2C=CC=CC=C2SC12C([N+](=O)[O-])=CC([N+](=O)[O-])=C[C-]2[N+](=O)[O-] (configuration not stated) | inactive: -19.6%
Nc1ccc([As](=O)(O)c2ccc(N)cc2)cc1 | inactive: 0.531%
O=[N+]([O-])c1cc([N+](=O)[O-])c(CCNc2ccccc2)c([N+](=O)[O-])c1 | inactive: -17.6%
CCc1nc2c(n1)c1c(non1O)c1c2no[n+]1[O-] | inactive: -26%
Cc1ccc(NP(=O)(Oc2ccccc2)Oc2ccccc2)nc1 | inactive: -1.33%
CC(=O)N1C2C3N(C(C)=O)C1C1N(C(C)=O)C(C(N1C(C)=O)N3C(C)=O)N2C(C)=O | inactive: 4.34%
O=[N+]([O-])c1cccc2n[nH]nc12 | inactive: 2%
COc1ccc(C2=NCC(CBr)S2)cc1 (configuration not stated) | inactive: 0.589%
O=C(O)CNc1ccc([As](=O)(O)O)cc1 | inactive: 4.78%
O=[N+]([O-])c1cccc(NC2=NCC(CBr)S2)c1 (configuration not stated) | inactive: 3.97%
O=[N+]([O-])c1ncn(CCn2ncnc2[N+](=O)[O-])n1 | inactive: -17.9%
CC(C)(C)C(=O)NC(Sc1ccncn1)C(Cl)(Cl)Cl (configuration not stated) | inactive: -1.6%
O=C(Nc1cc([As](=O)(O)O)ccc1O)c1ccccc1 | inactive: 2.93%
Nc1cccc2ccc([As](=O)(O)O)cc12 | inactive: -16%
CCN(N=Nc1nonc1N)c1nonc1N | inactive: -2.19%
O=[N+]([O-])c1cc([N+](=O)[O-])c(CCN2CCOCC2)c([N+](=O)[O-])c1 | active: -32.1%
Cc1ccc(NP(=O)(Oc2ccccc2F)Oc2ccccc2F)nc1 | inactive: 4.6%
Cc1cc(SC(NC(=O)c2ccc(F)cc2)C(Cl)(Cl)Cl)ncn1 (configuration not stated) | inactive: -1.08%
CCOP(=O)(Nc1ccccc1)OCC | inactive: -1.28% and inactive: 0.375%
O=P(Nc1nc2ccc(Cl)cc2s1)(c1ccccc1)c1ccccc1 | inactive: 9.21%
CC(=O)Nc1ccc([As](=O)(O)O)cc1 | inactive: 1.11%
O=C(O)c1ccccc1[As](=O)(O)O | inactive: -3.83%

SMILES | activity change, negative = inhibition
O=C(NC(Sc1ccncn1)C(Cl)(Cl)Cl)c1ccccc1 (configuration not stated) | inactive: -15.1%
Cc1c2non([O-])c-2c(C)[n+](=O)[n+]1[O-] | active: -61.3%
Oc1ccccc1CNc1ccccn1 | inactive: -13.2%
Nc1cc(N)c2nonc2c1[N+](=O)[O-] | inactive: -10.6%
CC(C)CC(=O)NC(Sc1ccc(Cl)cc1)C(Cl)(Cl)Cl (configuration not stated) | inactive: -0.401%
CN1CCCC(OC(=O)C(c2ccccc2)c2ccccc2)C1 (configuration not stated) | inactive: 3.61%
Clc1ccc(Cl)c(NC2=NCC(CBr)S2)c1 (configuration not stated) | inactive: -3.77%
Cc1ccc(OP(=O)(Nc2nccs2)Oc2ccc(C)cc2)cc1 | inactive: -1.26%
COc1ccccc1OP(=O)(Nc1ccc(C)cn1)Oc1ccccc1OC | inactive: -1.47%
Cc1ccc(N/C(=N/P(=O)(N2CCOCC2)N2CCOCC2)N2CCOCC2)cc1 | inactive: 0.742%
NC(=O)c1cc([N+](=O)[O-])cc([N+](=O)[O-])c1N | inactive: 2.15%
CC(=O)Nc1ccc(Oc2c([N+](=O)[O-])cc([N+](=O)[O-])cc2[N+](=O)[O-])cc1 | inactive: 17.7%
CC(=O)Nc1ccc([As](=O)(O)O)c(O)c1 | inactive: 1.71%
C[C@H]1OP(=O)(Oc2ccccc2)C[C@@H]2O[C@@H]21 (some centres not stated) | inactive: 3.1%
C[C@@H]1C=CCP(=O)(Oc2ccccc2)O1 (some centres not stated) | inactive: 0.348%
CC(=O)c1ccc(N2CC2c2ccncc2)cc1 (configuration not stated) | inactive: 2.52%
CC(C)(C)C(=O)NC(Sc1ccccc1)C(Cl)(Cl)Cl (configuration not stated) | inactive: 2.35%
CCOc1ccc(C2=NCC(CBr)S2)cc1 (configuration not stated) | inactive: -0.82%
O=P1(Nc2nc3ccc(Cl)cc3s2)COc2ccccc2O1 (configuration not stated) | inactive: 2.06%
O=c1c2cc([N+](=O)[O-])ccc2[nH]c2c([N+](=O)[O-])cc([N+](=O)[O-])cc12 | inactive: -6.6%
CN(C)C(=O)Oc1noc2ccccc12 | inactive: -0.301%
Cc1ccccc1OP(=O)(Nc1ccccn1)Oc1ccccc1C | inactive: 4.38%
CCC(=O)N1C2C3N(C(=O)CC)C1C1N(C(=O)CC)C(C(N1C(=O)CC)N3C(=O)CC)N2C(=O)CC | inactive: 3.53%
O=C(OC1CN2CCC1CC2)c1ccccc1 (configuration not stated) | inactive: 0.288%
Cc1ccc(OP(=O)(Nc2ccccn2)Oc2ccc(C)cc2)cc1 | inactive: -0.445%
CC(=O)NC(SC(=S)N(CC(C)C)CC(C)C)C(Cl)(Cl)Cl (configuration not stated) | inactive: -0.687%

SMILES | activity change, negative = inhibition
COC(=O)c1cc2c(s1)N=C(c1ccccc1)N(C)P2(=O)N1CCOCC1 (configuration not stated) | inactive: 1.92%
CCOC(=O)NC(Sc1ccccc1)C(Cl)(Cl)Cl (configuration not stated) | inactive: 0.447%
Cc1ccc(NP(=O)(Oc2cccc(C)c2)Oc2cccc(C)c2)nc1 | inactive: 2.4%
c1ccc(-c2nn[nH]n2)c(-c2nn[nH]n2)c1 | inactive: 0.547%
O=C(NC1CCS(=O)(=O)C1)NP(=S)(Oc1ccccc1)Oc1ccccc1 (configuration not stated) | inactive: 0.55%
CCNC(=S)/N=C(\N)N[N+](=O)[O-] | inactive: -0.432%
O=C(OC1CN2CCC1CC2)c1cccc(Cl)c1 (configuration not stated) | inactive: 1.13%
C(Cc1nn[nH]n1)Cc1nn[nH]n1 | inactive: -13.5%
Nc1ccc([As](=O)(O)c2ccc([N+](=O)[O-])cc2)cc1 | inactive: 2.65%
O=[As](O)(c1ccccc1)c1ccc(O)cc1 | inactive: 0.302%
O=[N+]([O-])c1ncn(CCn2cnc([N+](=O)[O-])n2)n1 | inactive: -9.6%
CC(=O)NC(SC(=S)N(C)C)C(Cl)(Cl)Cl (configuration not stated) | inactive: 2.39%
O=[N+]([O-])c1ccc(O)c(/C=N/Nc2ccc([N+](=O)[O-])cc2[N+](=O)[O-])c1 | inactive: 5.45%
C[C@H]1OP(=O)(Oc2ccccc2)[C@H](O)[C@H](O)[C@H]1N=[N+]=[N-] (some centres not stated) | inactive: 3.37%
O=P(Nc1nc2ccccc2s1)(c1ccccc1)c1ccccc1 | inactive: 2.98%
CN(C)C1(CNC(=O)c2ccc(Cl)c(S(N)(=O)=O)c2)CCCCC1 | inactive: 3.2%
O=P(Nc1ccccn1)(c1ccc(Br)cc1)c1ccc(Br)cc1 | inactive: -0.641%
CCC(C)(OOC(C)(C)C)OOC(C)(C)C | inactive: -1.03%
c1nnnn1CCn1cnnn1 | inactive: -0.0702%
O=P(Nc1nccs1)(c1ccccc1)c1ccccc1 | inactive: -0.0177%
CC(C)C(=O)NC(Sc1ccccc1)C(Cl)(Cl)Cl (configuration not stated) | inactive: 0.667%
CC(C)/C=N\N=C(\N)N[N+](=O)[O-] | inactive: 4.75%
O=[As](O)(c1ccccc1Br)c1ccccc1Br | inactive: -0.48%
CC(C)(C)C(=O)NC(Sc1ncccn1)C(Cl)(Cl)Cl (configuration not stated) | inactive: 2.39%
Clc1n[nH]nc1-c1nn[nH][15n]1 | inactive: -1.65%
CCOP(=O)(NC(=NC(C)c1ccccc1)NC(C)c1ccccc1)OCC (configuration not stated) | inactive: 4.52%

SMILES | activity change, negative = inhibition
CCC1=CC2Cc3nc4ccc(Cl)cc4c(N)c3C(C1)C2 (configuration not stated) | inactive: 3.6%
O=P1(Nc2ccccn2)COc2ccccc2OC1 | inactive: 5.06%
CCOP(=O)(Nc1ccc(C)cn1)OCC | inactive: 2.81%
Nc1cccc([As](=O)(O)c2ccccc2)c1 | inactive: 3.47%
O=[As](O)(c1cccs1)c1cccs1 | inactive: 0.0552%
Cc1ccc(OCC(=O)OC2CN3CCC2CC3)cc1 (configuration not stated) | inactive: 1.09%
O=P1(Nc2ccc(Br)cn2)COc2ccccc2OC1 | inactive: 1.4%
O=P1(Nc2ncccn2)COc2ccccc2OC1 | inactive: -1.4%
CN(C)C1(CNC(=O)c2ccc(S(C)(=O)=O)cc2)CCCCC1 | inactive: 3.32%
O=C(/C=C/c1ccccc1)OC1CN2CCC1CC2 (configuration not stated) | inactive: 1.77%
Cc1ccc(C(=O)OC2CN3CCC2CC3)cc1 (configuration not stated) | inactive: 5.1%
CC1CCC(C(C)C)C(OP(=O)(Nc2ccccn2)c2ccccc2)C1 (configuration not stated) | inactive: 0.493%
Cc1nn(-c2ccccc2)c2c1P(=O)(N1CCOCC1)N(C)C(c1ccccc1)=N2 (configuration not stated) | inactive: 1.88%
CCOP1(=S)c2c(C)nn(CCC#N)c2N=C(c2ccc(F)cc2)N1C (configuration not stated) | inactive: 1.61%
CN(C(=O)Cc1ccccc1)[C@@H]1CC[C@]2(CCCO2)C[C@H]1N1CCCC1 | inactive: 6.77%
O=[N+]([O-])c1ccc2c(c1)nnn2O | inactive: 5.22%
O=[N+]([O-])CC(O)c1ccc([N+](=O)[O-])cc1 (configuration not stated) | inactive: 4.32%
NC(=O)Nc1ccc([As](=O)(O)O)cc1 | inactive: -0.644% and inactive: 0.88%
O=C(O)COc1ccc([As](=O)(O)O)cc1[N+](=O)[O-] | inactive: 2.18%
Nc1ccccc1[As](=O)(O)c1ccccc1 | inactive: 2.13%
O=P(Nc1nccs1)(Oc1ccccc1)Oc1ccccc1 | inactive: 6.05%
O=P(Nc1nccs1)(c1ccccc1)c1nc2ccccc2s1 (configuration not stated) | inactive: -0.651%
CCOP1(=S)c2c(C)nn(CCC#N)c2N=C(c2ccccc2F)N1C (configuration not stated) | inactive: -0.361%
CS(=O)(=O)c1cc([N+](=O)[O-])c2no[n+]([O-])c2c1 | active: -57.4%
